Amino acid sequences for entries named in this document (tags omitted).
UniProt Q96SW2, whole entry: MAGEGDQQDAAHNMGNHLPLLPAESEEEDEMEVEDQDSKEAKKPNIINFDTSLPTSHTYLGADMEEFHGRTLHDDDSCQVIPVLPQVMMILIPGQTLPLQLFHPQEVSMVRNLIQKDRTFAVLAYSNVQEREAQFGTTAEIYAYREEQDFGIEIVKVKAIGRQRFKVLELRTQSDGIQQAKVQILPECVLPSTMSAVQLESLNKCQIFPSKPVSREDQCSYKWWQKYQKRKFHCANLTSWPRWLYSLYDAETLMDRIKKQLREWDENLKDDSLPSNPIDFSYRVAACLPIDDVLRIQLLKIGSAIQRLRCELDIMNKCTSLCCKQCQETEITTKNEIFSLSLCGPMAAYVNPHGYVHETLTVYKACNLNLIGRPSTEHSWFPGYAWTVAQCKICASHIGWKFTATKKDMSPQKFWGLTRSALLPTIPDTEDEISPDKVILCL
UniProt Q16531, whole entry partner: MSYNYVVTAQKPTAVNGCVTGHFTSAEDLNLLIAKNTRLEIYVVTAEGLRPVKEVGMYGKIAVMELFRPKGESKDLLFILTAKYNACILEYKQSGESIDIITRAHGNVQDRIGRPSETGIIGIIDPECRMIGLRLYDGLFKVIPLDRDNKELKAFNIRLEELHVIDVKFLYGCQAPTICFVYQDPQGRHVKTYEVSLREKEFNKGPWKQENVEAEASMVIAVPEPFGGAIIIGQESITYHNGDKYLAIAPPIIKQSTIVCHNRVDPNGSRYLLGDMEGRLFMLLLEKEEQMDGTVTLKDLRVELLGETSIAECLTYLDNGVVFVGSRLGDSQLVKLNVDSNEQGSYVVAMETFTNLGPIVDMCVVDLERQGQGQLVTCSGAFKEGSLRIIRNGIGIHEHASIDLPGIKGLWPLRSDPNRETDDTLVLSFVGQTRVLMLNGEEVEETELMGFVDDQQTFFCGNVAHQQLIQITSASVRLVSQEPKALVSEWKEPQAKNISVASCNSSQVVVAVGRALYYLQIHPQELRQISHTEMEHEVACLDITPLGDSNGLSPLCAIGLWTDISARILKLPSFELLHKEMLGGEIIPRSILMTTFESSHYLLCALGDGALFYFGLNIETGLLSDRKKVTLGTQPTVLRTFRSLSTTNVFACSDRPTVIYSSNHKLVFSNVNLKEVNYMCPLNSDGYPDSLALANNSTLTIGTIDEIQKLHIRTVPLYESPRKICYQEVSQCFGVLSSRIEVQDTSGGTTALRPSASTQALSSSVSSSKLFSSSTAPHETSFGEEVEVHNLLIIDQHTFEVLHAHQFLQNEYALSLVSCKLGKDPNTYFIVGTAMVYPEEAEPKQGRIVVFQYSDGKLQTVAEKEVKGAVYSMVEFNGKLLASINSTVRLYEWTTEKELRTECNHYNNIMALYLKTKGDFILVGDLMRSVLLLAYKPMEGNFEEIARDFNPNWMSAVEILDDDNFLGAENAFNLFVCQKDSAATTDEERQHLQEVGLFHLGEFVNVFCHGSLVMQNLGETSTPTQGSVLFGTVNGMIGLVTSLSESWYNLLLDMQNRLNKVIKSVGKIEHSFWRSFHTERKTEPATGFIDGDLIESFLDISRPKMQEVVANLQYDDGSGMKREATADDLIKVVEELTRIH

The target of the assay is CRBN/DDB1 protein (Homo sapiens, UniProt Q96SW2). As to the kind of experiment: Detection of inhibition of CRBN/DDB1 activity by compounds (FRET). To be noted: read-out: IC50, inhibition of CRBN/DDB1 protein, 5.0 nM CRBN/DDB1, 0.2 nM Anti-6His-Tb, 50.0 nM FITC-labeled thalidomide analogue, 1.0% DMSO, 25° C. The procedure: Test Example 1 Detection of Inhibition of CRBN/DDB1 Activity by Compounds (FRET)
Microplate reader (BMG PHERAstar FSX), ECHO (LABCYTE Echo 665), microplate thermostatic oscillator (Hangzhou Ruicheng Instrument Co., Ltd.), disodium hydrogen phosphate (Sigma), sodium dihydrogen phosphate (Sigma), bovine serum albumin (Sigma), Anti-6His-Tb crypate Gold (CISBIO), CRBN/DDB1 protein (HitGen) and 384-well plate (Grenier Bio-one).
The dry powder of the compound was dissolved in DMSO, and the compound was serially diluted using ECHO, and added to a 384-well reaction plate, so that the final concentration of DMSO in the whole reaction system (10.0 μL) was 1.0%, and the same amount of DMSO was added as a control.
20 mM disodium hydrogen phosphate, 20 mM sodium dihydrogen phosphate, 0.08% bovine serum albumin and buffer with pH of 7.0 were used to dilute the CRBN/DDB1 protein to twice the required final concentration (5.0 nM), and 5.0 μL of the diluted CRBN/DDB1 protein was added into the 384-well reaction plate added with compounds, centrifuged at 1000 rpm for 1 min, then placed on a microplate thermostatic oscillator, and pre-incubated at 25° C. and 250 rpm for 15 min. 20 mM disodium hydrogen phosphate, 20 mM sodium dihydrogen phosphate, 0.08% bovine serum albumin and buffer with a pH of 7.0 were used to dilute Anti-6His-Tb crypate Gold and FITC-labeled thalidomide analogues to twice the required final concentration, and the final concentration of Anti-6His-Tb crypate Gold was 0.2 nM, the final concentration of FITC-labeled thalidomide analogues was 50.0 nM, and a mixed solution of Anti-6His-Tb crypate Gold/FITC-labeled thalidomide analogues was obtained. […] After the reaction was completed, the fluorescence signal value (Ex-337 nm Em=520/490 nm) in the 384-well reaction plate was read by the microplate reader. […]
The percentage of residual activity of each concentration was calculated as follows: […]
Then, the dose-effect curve was fitted using GraphPad Prism 6.0 and the IC50 value was calculated accordingly.
For the molecule `CN1CCn2c(c(C(=O)N3CC4(CC(=O)NC4=O)C3)c3ccccc32)C1=O`, the IC50 turned out to be 9 nM.
Under `O=C1CC2(CN(C(=O)c3c4ccccc4n4cc[nH]c(=O)c34)C2)C(=O)N1` stands 52 nM; under `Cn1ccn2c(c(C(=O)N3CC4(CC(=O)NC4=O)C3)c3ccccc32)c1=O`, 24 nM.
